This passage reports IC50 and Ki results from ChEMBL document CHEMBL2176890 (J Med Chem, 2012).

Protein sequences, listed by entry. Tags and fused reporters are not part of them.
UniProt Q8NER1, whole entry: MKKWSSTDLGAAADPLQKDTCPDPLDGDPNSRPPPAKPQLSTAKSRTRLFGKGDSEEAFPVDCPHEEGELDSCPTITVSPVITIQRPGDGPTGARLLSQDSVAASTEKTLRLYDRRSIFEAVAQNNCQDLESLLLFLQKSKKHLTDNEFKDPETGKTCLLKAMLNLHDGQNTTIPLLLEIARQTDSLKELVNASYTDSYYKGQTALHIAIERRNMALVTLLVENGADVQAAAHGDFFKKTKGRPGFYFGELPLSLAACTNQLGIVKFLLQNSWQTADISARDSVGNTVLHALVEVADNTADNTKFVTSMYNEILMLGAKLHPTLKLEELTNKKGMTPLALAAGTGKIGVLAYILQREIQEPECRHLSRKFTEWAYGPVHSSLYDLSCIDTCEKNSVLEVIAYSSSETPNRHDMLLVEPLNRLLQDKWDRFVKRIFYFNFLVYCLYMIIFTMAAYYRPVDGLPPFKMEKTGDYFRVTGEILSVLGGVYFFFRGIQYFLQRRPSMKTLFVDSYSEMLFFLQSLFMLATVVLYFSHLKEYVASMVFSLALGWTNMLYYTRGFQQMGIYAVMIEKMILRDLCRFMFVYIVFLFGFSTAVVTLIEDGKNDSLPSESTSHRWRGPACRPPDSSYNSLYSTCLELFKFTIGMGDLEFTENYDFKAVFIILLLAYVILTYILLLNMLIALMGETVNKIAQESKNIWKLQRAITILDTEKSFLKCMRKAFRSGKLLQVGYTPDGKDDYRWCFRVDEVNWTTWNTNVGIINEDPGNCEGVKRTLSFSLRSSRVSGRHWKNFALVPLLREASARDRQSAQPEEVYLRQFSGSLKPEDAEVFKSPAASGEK

The target of test [1] is T1, Transient receptor potential cation channel subfamily V member 1 (Homo sapiens, UniProt Q8NER1). In words: Antagonist activity at human TRPV1 expressed in CHOK1 cells assessed as inhibition of pH-induced activity by FLIPR assay. The class given is functional, cell-based, CHO-K1.
Test [2] deals with T1, Transient receptor potential cation channel subfamily V member 1. Put plainly: Antagonist activity at human TRPV1 expressed in CHOK1 cells assessed as inhibition of capsaicin-induced activity by FLIPR assay. The class given is functional, cell-based, CHO-K1.

Consider `C[C@H](C(=O)NCc1ccc(C(F)(F)F)nc1N1CCC(c2ccccc2)CC1)c1ccc(NS(C)(=O)=O)c(F)c1`, for which the IC50 in test [1] was 17.4 nM. Further, the inhibitory constant (Ki) in test [2] was 0.3 nM.
The corresponding values for `C[C@@H](C(=O)NCc1ccc(C(F)(F)F)nc1N1CCC(c2ccccc2)CC1)c1ccc(NS(C)(=O)=O)c(F)c1` are 2350 nM and 7.5 nM.
